Laboratory results published in US7919532B2, “Hydroxylated aromatic compounds” (Revotar Biopharmaceuticals AG, priority 2005, dated 2011).

By UniProt entry, the sequences of proteins in these tests, tags left out. Where a name states a change or a piece, a line headed by the entry shows the natural chain unless it says otherwise. Chains listed by the source or under a name are the forms on record and can include a tag or linker.
UniProt P16581, with tags, fused parts or gaps limits assumed: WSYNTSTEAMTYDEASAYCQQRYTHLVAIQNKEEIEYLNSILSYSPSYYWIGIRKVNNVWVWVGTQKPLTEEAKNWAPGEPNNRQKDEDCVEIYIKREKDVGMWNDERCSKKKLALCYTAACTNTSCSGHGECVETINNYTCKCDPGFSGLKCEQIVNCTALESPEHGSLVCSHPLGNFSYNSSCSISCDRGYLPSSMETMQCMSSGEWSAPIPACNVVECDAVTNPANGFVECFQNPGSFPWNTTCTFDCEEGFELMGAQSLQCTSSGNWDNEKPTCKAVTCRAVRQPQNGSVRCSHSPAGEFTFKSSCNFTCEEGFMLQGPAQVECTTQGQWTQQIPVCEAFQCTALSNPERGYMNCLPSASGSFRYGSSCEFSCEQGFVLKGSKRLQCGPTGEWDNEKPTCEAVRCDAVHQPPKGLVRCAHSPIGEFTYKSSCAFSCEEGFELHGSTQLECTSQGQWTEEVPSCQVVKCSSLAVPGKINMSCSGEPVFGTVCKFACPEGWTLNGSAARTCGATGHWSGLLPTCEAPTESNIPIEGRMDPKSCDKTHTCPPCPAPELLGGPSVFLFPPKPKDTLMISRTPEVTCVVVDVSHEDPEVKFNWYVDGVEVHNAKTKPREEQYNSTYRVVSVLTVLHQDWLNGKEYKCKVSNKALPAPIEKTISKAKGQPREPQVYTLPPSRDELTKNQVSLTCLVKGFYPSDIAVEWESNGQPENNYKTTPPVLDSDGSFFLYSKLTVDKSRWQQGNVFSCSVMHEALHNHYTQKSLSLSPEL

Target: human E-Selectin-IgG-chimera (Homo sapiens, UniProt P16581)
Test: Sialyl Lewis X Tyrosine Sulfate Assay (sLex TSA), E-selectin
Parameters: IgG (chimera partner)
Conditions: inhibition of binding of sLex-tyrosine sulfate polyacrylamide ligand complex to selectin chimera
Procedure: Compounds of the present invention are assayed on a molecular level for their ability to inhibit the binding of P-, L-, or E-selectin chimeric molecules to sLe^x and tyrosinesulfate residues linked to a polymeric matrix as a PSGL-1 substitute. Selected IC50-values are determined.
Microtiter plates are coated overnight in carbonate buffer pH9.6 with goat anti human Fc mAB (10 μg/ml). After washing in assay buffer (25 mM 4-(2-hydroxyethyl)-1-piperazineethanesulfonic acid (HEPES), 150 mM NaCl, 1 mM CaCl2 pH7.4) and blocking (3% bovine serum albumin (BSA) in assay buffer) plates are incubated for 2 h at 37° C. with human P-Selectin-IgG-chimera (0.61 nM respectively 150 ng/mL) or human L-Selectin-IgG-chimera (0.61 nM respectively 89 ng/mL) or human E-Selectin-IgG-chimera (0.61 nM respectively 131 ng/mL). 5 μl of sLe^x-tyrosine sulfate polyacrylamide (1 mg/ml) carrying 15% sLe^x, 10% Tyrosine-sulfate and 5% biotin is complexed with 20 μl Streptavidin-Peroxidase solution (1 mg/ml) and 25 μl assay buffer without CaCl2. For use in the assay, the ligand complex is diluted 1:10000 in assay buffer and further diluted 1:1 with varying amounts of compounds in assay buffer incl. 2% DMSO. […] Bound sLe^x-Tyrosine sulfate ligand complex is determined by measuring optical density at 450 nm vs. 620 nm in a Fusion alpha-FP reader (sold from Packard Bioscience, Dreieich, Germany).

IC50: > 500 µM
Compound: O=C(O)Cc1cccc(-c2cc(CCCCCCc3ccc(O[C@H]4O[C@H](CO)[C@@H](O)[C@H](O)[C@@H]4O)c(-c4cccc(CC(=O)O)c4)c3)ccc2O[C@H]2O[C@H](CO)[C@@H](O)[C@H](O)[C@@H]2O)c1 [Bimosiamose, bimosiamose, reference compound]
